# In PubChem BioAssay AID485281 (National Center for Advancing Translational Sciences (NCATS), 2010):
# Protein sequences, listed by entry. Tags and fused reporters are not part of them. Residues count along the entry.
# UniProt P02791, 2-175 limits assumed: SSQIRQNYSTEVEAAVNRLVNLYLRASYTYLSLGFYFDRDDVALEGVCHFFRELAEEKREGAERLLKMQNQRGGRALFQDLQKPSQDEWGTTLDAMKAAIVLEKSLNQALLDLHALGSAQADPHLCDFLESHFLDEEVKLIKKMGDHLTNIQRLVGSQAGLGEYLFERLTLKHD
# Values joined by “and” are separate entries in the source; they are usually repeats but may differ in a detail not shown here. Equal entries are not always repeated. Only a part is listed here, and it is no random draw. Some of these compounds have results that are not shown, active ones among them. Inconclusive results are not listed. Active and inactive are the calls of the source. Calls come from the whole dose curve; as a rule, active = well fitted inhibition curve with a large enough effect; inconclusive = small, poorly fitted or top-dose-only effect; inactive = no such curve, though single readings can be large or run the other way.
# Molecular target: Ferritin light chain (Equus caballus) (UniProt P02791)
# Assay: qHTS Assay for Identification of Novel General Anesthetics; note: nearly all actives have a fitted effect of over 20% in size
# Conditions: apoferritin/1-aminoanthracene competitive binding, fluorescence; at 77.5 µM (top of the series)
# % is set by controls: 0 for no effect and ±100 for the full control effect.
row,SMILES,"activity change, negative = displacement"
1,COc1ccc(Br)c(C(=O)NCC2(N3CCCCC3)CCCCC2)c1,inactive: -1.75%
2,Cc1cccc(C(=O)NCC2(N(C)C)CCCCC2)c1,inactive: 8.25%
3,COc1cc(C(=O)NCC2(N(C)C)CCCCC2)cc(OC)c1OC,inactive: 4.46%
4,CN(C)c1cccc(C(=O)NCC2(N(C)C)CCCCC2)c1,inactive: -4.77%
5,CC(C)Oc1ccc(C(=O)NCC2(N(C)C)CCCCC2)cc1,inactive: 5.78% and inactive: -4.48%
6,O=C(OC1CN2CCC1CC2)C(CO)(c1ccccc1)c1ccccc1 (centres undefined),inactive: 4.66%
7,COc1cccc(C(=O)NCC2(N3CCOCC3)CCCCC2)c1,inactive: -3.59%
8,CC(C)COc1ccc(C(=O)NCC2(N(C)C)CCCCC2)cc1,inactive: -13.4%
9,COc1ccc(C(=O)NCC2(N(C)C)CCCCC2)cc1Cl,inactive: 4.91%
10,COc1ccc(Cl)cc1C(=O)NCC1(N(C)C)CCCCC1,inactive: 0.326%
11,COc1cccc(C(=O)NCC2(N3CCCCC3)CCCCC2)c1,inactive: -7.33%
12,O=C(NCC1(N2CCCCC2)CCCCC1)c1cccc(Cl)c1,inactive: -8.4%
13,CN(C)C1(CNC(=O)c2ccc(Br)cc2)CCCCC1,inactive: 0.567%
14,COc1cc(C(=O)NCC2(N(C)C)CCCCC2)c([N+](=O)[O-])cc1OC,inactive: -0.871%
15,O=C(NCC1(N2CCCCC2)CCCCC1)c1cc(F)c(F)cc1Cl,inactive: -9.59%
16,C=CCN1CCN(CCOC(=O)C(O)(c2ccccc2)c2ccccc2)CC1,inactive: -2.25%
17,O=C(NCC1(N2CCCCC2)CCCCC1)c1cccc(Br)c1,inactive: -11.8%

row,SMILES,"activity change, negative = displacement"
1,Cc1cc(C(=O)NCC2(N3CCCCC3)CCCCC2)ccc1[N+](=O)[O-],inactive: -0.74%
2,CCN1CCCC(OC(=O)C2(O)c3ccccc3C=Cc3ccccc32)C1 (centres undefined),inactive: -12.4%
3,CCOc1cccc(C(=O)NCC2(N(C)C)CCCCC2)c1,inactive: -1.37%
4,COc1ccc(C(=O)NCC2(N(C)C)CCCCC2)cc1,inactive: -3.67%
5,CN(C)C1CCCC1OC(=O)C(O)(c1ccccc1)c1ccccc1 (centres undefined),inactive: -4.9%
6,CN(C)c1ccc(C(=O)NCC2(N(C)C)CCCCC2)cc1,inactive: 2.4%
7,CN(C)C1(CNC(=O)c2ccccc2[N+](=O)[O-])CCCCC1,inactive: 4%
8,Cc1ccccc1C(=O)NCC1(N2CCCCC2)CCCCC1,inactive: -8.74%
9,CCCCOc1ccccc1C(=O)NCC1(N(C)C)CCCCC1,inactive: 5.76%
10,CC(C)N1C(=O)CC2(CCN(CCOC(=O)C(O)(c3ccccc3)c3ccccc3)CC2)C1=O,inactive: -12.5%
11,COc1cc(SC)ccc1C(=O)NCC1(N(C)C)CCCCC1,inactive: -5.35%
12,CN(C)C1(CNC(=O)c2cccc(Cl)c2)CCCCC1,inactive: -5.48%
13,CCN(CC)CC(C)C(C)OC(=O)C(O)(c1ccccc1)c1ccccc1 (centres undefined),inactive: 3.42%
14,CN(C)C1(CNC(=O)c2ccccc2F)CCCCC1,inactive: 11%
15,Cc1ccc(C(=O)NCC2(N3CCCCC3)CCCCC2)cc1,inactive: -3.95%
16,O=C(NCC1(N2CCCCC2)CCCCC1)c1cc([N+](=O)[O-])ccc1Cl,inactive: -7.62%
17,CN1[C@@H]2CC[C@H]1CC(OC(=O)C(O)(c1ccccc1)c1ccccc1)C2 (some centres undefined),inactive: -0.189%
